Results published in patent US20260384421A1, “NOVEL COMPOUNDS THAT CAN BE USED AS THERAPEUTIC AGENTS” (published 2026).

System: AMPK (Thr172 phosphorylation) in HCT-116 cells
Assay: AMPK activation assay on HCT-116 cells (Thr172 phosphorylation, western blot)
Conditions: 10 nM, 20 hours, Thr172 phosphorylation relative to DMSO control
Method: AMPK activation can be assessed by the levels of AMPK phosphorylation at Thr172. The APMK activating activities of compounds falling under general formula (I) were investigated by western blotting on different cancer cell lines. Access and cultivation of the respective cell lines are as described above. To this end, A-549, HEP-G2, and HCT-116 cells were seeded into 6-well culture plates (Cyto-One®, #CC7682-7506) in a total volume of 2 mL at a density to achieve 80% confluency by 48 hours and incubated over night at 37 °C and 5% CO2. Cells were treated at a confluency of around 50% with compounds at indicated final concentration by adding 2 μL per well of a 1000× compound DMSO stock-solution. Cells were incubated for 20 hours at 37 °C and 5% CO2. Then, cells were lysed in RIPA buffer (Pierce™ RIPA Buffer, FisherScientific, #89900) supplemented with 1× cOmplete™ Mini Protease Inhibitor Cocktail (Roche, #11836153001) and 1 mM Sodium Orthovanadate (Na3VO3, FisherScientific, #J60191) and lysates were subjected to standard western blotting procedure. Protein concentration of the samples was determined by BCA assay and samples were normalized to achieve equal protein concentration. 4× Laemmli Sample Buffer (Bio-Rad, #1610747) was supplemented with 200 μM DTT (Sigma Aldrich-Merck, #D9779) and added to the samples to achieve a final concentration of 1× Laemmli/50 μM DTT by diluting lysate samples with supplemented Laemmli buffer 1:4. Samples were then incubated at 95 °C for 5 min in a Thermomixer (Eppendorf). SDS-PAGE was performed in 1× Tris/Glycine/SDS buffer (TGS, Bio-Rad, #1610772) using 4-15% gradient polyacrylamide gels (4-15% Mini-PROTEAN® TGX Stain-Free™ Gel, Bio-Rad, #456-8084). Proteins were transferred onto 0.2 μm PVDF membranes using the semi-dry Trans-Blot® Turbo™ transfer system (Trans-Blot® Turbo™, Bio-Rad, #170-4150) with prepacked Trans-Blot® Turbo™ transfer packs (Bio-Rad, #170-4156). […] Signals were developed with chemiluminescence substrate (SuperSignal™ West Pico PLUS, Fisher Scientific, #34577) and detected with the ChemiDoc™ MP imaging system (ChemiDoc™ MP, Bio-Rad, #12003154). Chemiluminescence signals of phosphorylation, total protein and loading control were quantified by densitometry using the image analysis software Image Lab™ (version 6.0.1, Bio-Rad). […]
For each condition, the ratio of phosphorylation to corresponding total protein was calculated from the signal intensities. […]
In the following embodiments, a compound is considered as an AMPK activator if the fold-change value of phosphorylation is 1.5 or higher, preferably 2.0 or higher, and more preferably 2.5 or higher as determined with the method described above.

`COC1CCC(c2ccc(Oc3ccc(C(=O)N4CCN(Cc5ccc(C(F)(F)F)cc5)CC4)cc3)c(CO)c2)CC1` (stereo not shown) was tested, and the “Fold-change AMPK activation” value was ≥2.5.

With `O=C(c1ccc(Oc2ccc(C3CCC4(CC3)OCCO4)cc2CO)cc1)N1CCN(Cc2ccc3oc(=O)ccc3c2)CC1` the “Fold-change AMPK activation” value was ≥2.5.

With `O=C(c1ccc(Oc2ccc(C3CCC4(CC3)OCCO4)cc2CO)cc1)N1CCN(Cc2ccc([N+](=O)[O-])cc2)CC1` the “Fold-change AMPK activation” value was ≥1.5.

With `O=C(c1ccc(Oc2ccc(C3CCC4(CC3)OCCO4)cc2CO)cc1)N1CCN(Cc2ccc(O)cc2)CC1` the “Fold-change AMPK activation” value was ≥2.5.
